Earlier results as cited in patent publication US20020147170A1 (priority 2000, published 2002).

Target: AT1A angiotensin II receptor (Rattus norvegicus, UniProt P25095, N111A)
Details: basal inositol phosphate production; cited from earlier work

B1: Asn at position 111 to Ala: AT1A angiotensin II receptor with Asn 111 mutated to Ala (protein, UniProt P25095 1-359, looked up, variant N111A)
Type-1 angiotensin II …: MALNSSAEDGIKRIQDDCPKAGRHSYIFVMIPTLYSIIFVVGIFGNSLVVIVIYFYMKLKTVASVFLLNLALADLCFLLTLPLWAVYTAMEYRWPFGNHLCKIASASVSFALYASVFLLTCLSIDRYLAIVHPMKSRLRRTMLVAKVTCIIIWLMAGLASLPAVIHRNVYFIENTNITVCAFHYESRNSTLPIGLGLTKNILGFLFPFLIILTSYTLIWKALKKAYEIQKNKPRNDDIFRIIMAIVLFFFFSWVPHQIFTFLDVLIQLGVIHDCKISDIVDTAMPITICIAYFNNCLNPLFYGFLGKKFKKYFLQLLKYIPPKAKSHSSLSTKMSTLSYRPSDNMSSSAKKPASCFEVE
constitutive activity: strong constitutive activity
